Test: Diffusion amount of dextran of different molecular weights from slow release gel layer
Format: physicochemical
Conditions: dextran 1% by weight in gel layer, 2 hours at 37° C. in PBS
Procedure: Liquid A (with dextran) was prepared by mixing the Liquid A with dextran (molecular weight 570 Da, 10 KDa, and 500 KDa), which was intended for drugs, to reach 1% by weight.
Equal amounts of Liquid A (with dextran) and Liquid B were added to an insert, and a gel layer was prepared by gelation and incubated in wells with PBS ( - - - ) in a microwell plate for 2 hours at 37° C. conditions.
The PBS( - - - ) incubated above was collected, and the fluorescence intensity was measured by a plate reader. The molecular weight of dextran diffused from the gel was calculated from the fluorescence intensity. In Table 5, “Good” indicates a diffusion amount of more than 1.5×10 ^−8 mol/l and “Fair” indicates a diffusion amount of 1.0×10^−8 mol/l. The diffusion amount was more than 1.5×10^−8 mol/l for a molecular weight of 570 Da.

diffusion amount	Substance	Diffusion amount measurement result, Determination
more than 1.5×10^−8 mol/l	dextran [570 Da]	Good (“Good” indicates a diffusion amount of more than 1.5×10 ^−8 mol/l)
	dextran [10 kDa]	Fair (“Fair” indicates a diffusion amount of 1.0×10^−8 mol/l)
	dextran [500 kDa]	Fair (“Fair” indicates a diffusion amount of 1.0×10^−8 mol/l)

— US20210147795A1, “LAYERED BODY” (priority 2019, published 2021)
